Measurements from patent US6911431B1 (priority 1989, dated 2005).

Experiments:
[1] = Pharmacokinetics and biodistribution GLP study, intranasal 14C-labelled dipeptide; type: in vivo, Sprague-Dawley rats; details: 110 μg/kg intranasally, rats
Protocol: ^14C-radiolabeled L-Glu-L-Trp (110 μg/kg) was administered intranasally to Sprague-Dawley rats. Blood and tissue samples were collected at different 0.5, 2, 8 or 24 hours and the amount of intact L-Glu-L-Trp was determined by HPLC. Tissue samples included packed red blood cells, white blood cells, liver, kidney, heart, lung spleen, thymus, brain, muscle, skin, fat, eye, ovaries, testes, submandibular lymph nodes, and the gastrointestinal tract with contents.

[2] = Acute toxicity study, im injection; type: in vivo; details: about 10,000-times a therapeutic dosage
Text: Summary: L-Glu-L-Trp when injected im at dosages calculated to be about 10,000-times a therapeutic dosage were non toxic in mice, guinea pigs, chickens, and dogs as determined by monitoring general condition, behavior, movements, cardiac and respiratory physiology, and gross pathology.

[3] = Solubility of purified dipeptide; type: physicochemical
Text: Purification of the product peptides is accomplished for example by crystallizing the peptide from an organic solvent such as methyl-butyl ether, followed by dissolving in distilled water, and dialysis (if greater than about 500 molecular weight), thin layer chromatography, gel chromatography, lyophilization, or reverse HPLC (e.g., using a C18 column with 0.1% trifluoroacetic acid and acetonitrile as solvents) if less than 500 molecular weight. Purified peptide is lyophilized is stored in a dry state until use. […] [alpha22D=+12.6; C=0.5 H2O. Rf=0.65 (butanol: acetic acid: water=3:1:1). UV (275±5 nm, max). NMR (500 MHz): 0.001 mol/1 of the peptide solution, Trp (3.17; 3.37; 4.57; 7.16; 7.24; 7.71; 7.49); Glu (1.90; 1.96; 2.21; 3.72).

[4] = Chronic toxicity study, 28 days daily im or iv; type: in vivo, dogs and rats; details: daily single im or iv for 28 days
Protocol: Kidney function was determined by evaluation of diuresis after water-loading; for certain other experiments dogs and rats were sacrificed and examined after 10, 20, 30, and 60 days.

Substance	Tissue elimination half-life [1] [h]	blood half life [1]	intact compound in blood at 30 minutes (HPLC) ([1]; sensitivity 5-101 ng/mL)	Acute toxicity ([2]; chickens)	Acute toxicity ([2]; dogs)	Acute toxicity ([2]; guinea pigs)	Acute toxicity ([2]; mice)	Solubility in chloroform and ether ([3]; chloroform and ether)	Solubility in water, DMF ([3]; water, DMF)	Chronic toxicity [4]
14C-radiolabeled L-Glu-L-Trp [14C-L-Glu-L-Trp]	18.7	less than 30 minutes	No intact compound was detected							
L-Glu-L-Trp				non toxic	non toxic	non toxic	non toxic	insoluble	soluble	without adverse effects
